Experimental data taken from US20110111016A1, “NON-DNA BASE-CONTAINING POLYNUCLEOTIDE COMPOSITIONS AND THEIR USE FOR THE MODULATION OF IMMUNE RESPONSES” (priority 2009, published 2011).

Target: T1, human TLR8 (Homo sapiens, UniProt Q9NR97)
T1 construct: host or cells: HEK293
T1 sequence (Q9NR97 27-1041): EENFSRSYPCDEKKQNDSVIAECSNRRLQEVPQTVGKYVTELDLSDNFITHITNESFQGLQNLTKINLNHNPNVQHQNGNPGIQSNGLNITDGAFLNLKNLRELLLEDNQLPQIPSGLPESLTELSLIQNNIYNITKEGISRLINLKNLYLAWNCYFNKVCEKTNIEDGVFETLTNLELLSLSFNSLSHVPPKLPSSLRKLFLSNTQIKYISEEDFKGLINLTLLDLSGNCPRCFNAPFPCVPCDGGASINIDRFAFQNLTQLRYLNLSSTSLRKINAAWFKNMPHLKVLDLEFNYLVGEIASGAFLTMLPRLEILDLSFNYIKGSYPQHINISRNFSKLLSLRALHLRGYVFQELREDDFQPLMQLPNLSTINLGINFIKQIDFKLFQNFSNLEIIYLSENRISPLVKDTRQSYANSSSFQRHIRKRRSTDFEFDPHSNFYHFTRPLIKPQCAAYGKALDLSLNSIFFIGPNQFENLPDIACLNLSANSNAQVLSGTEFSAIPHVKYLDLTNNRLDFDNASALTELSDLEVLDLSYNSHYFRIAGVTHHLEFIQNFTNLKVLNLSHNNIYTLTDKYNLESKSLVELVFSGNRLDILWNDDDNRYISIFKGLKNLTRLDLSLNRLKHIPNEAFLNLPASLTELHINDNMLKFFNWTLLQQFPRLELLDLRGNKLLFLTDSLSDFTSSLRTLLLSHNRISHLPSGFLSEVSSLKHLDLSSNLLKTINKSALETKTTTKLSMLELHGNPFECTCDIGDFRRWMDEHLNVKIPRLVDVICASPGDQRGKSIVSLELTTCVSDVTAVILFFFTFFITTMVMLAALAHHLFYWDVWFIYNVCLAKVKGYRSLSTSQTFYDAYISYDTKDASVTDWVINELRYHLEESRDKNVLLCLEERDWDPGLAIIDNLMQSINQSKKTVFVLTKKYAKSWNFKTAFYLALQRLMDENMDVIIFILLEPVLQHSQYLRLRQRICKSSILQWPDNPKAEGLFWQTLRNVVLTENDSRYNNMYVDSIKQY
Experiment: NF-κB activation (secreted alkaline phosphatase reporter) in HEK293 cells expressing human TLR8
Type: cell-based
Details: HEK293/hTLR8 cell line; at 1 μg/mL; 16-20 hours

## CL075 [reference compound]
  TLR activation, Optical Density at 650 nm, hTLR8, positive control: 3.137
